Drawing on patent publication US11420959B2, “DACOS type NNRTIS amino acid ester derivative, preparation method thereof, pharmaceutical composition, and application thereof” (YUNNAN UNIVERSITY, priority 2018, dated 2022), this text covers EC50 for one compound.

For this experiment, the system named is HIV-1IIIB. The experiment can be described thus: Syncytium inhibition experiment, C8166 cells infected with HIV-1IIIB. To be noted: Human immunodeficiency virus 1, 72 h, syncytium count, three days. The format is cell-based. As for the experimental part: C8166 cells infected with HIV-1 were used for determining the anti-HIV biological activity at the cellular level. The specific method was described below.
Syncytium inhibition experiment: 100 μL of C8166 cell suspension (4×10^5/mL) was inoculated into each well of a 96-well cell culture plate containing 5-fold serial dilutions of the compounds, followed by addition of HIV-1IIIB diluted supernatant (MOI=0.04). Three replicate wells were set for each serial concentration. […] The cells were incubated at 37° C. in a 5% CO2 incubator for three days. The number of the syncytia was counted in five non-overlapping fields of view by using an inverted microscope (100×). […] Calculation formula: cytopathic inhibition rate (%)=(1−number of syncytia in experimental wells/number of syncytia in control well)×100%.

The compound `Cc1cn([C@H]2C[C@H](N=[N+]=[N-])[C@@H](CO)O2)c(=O)[nH]c1=O` [AZT, Zidovudine, reference compound] returned an EC50 of 49 nM.
